This is a selection; strong and weak results do not stand in their true shares. Some results for these compounds are left out of this collection, so the calls shown say nothing about other tests. Results filed as inconclusive are left out. Activity calls are given as the source filed them. Calls come from the whole dose curve; as a rule, active = well fitted inhibition curve with a large enough effect; inconclusive = small, poorly fitted or top-dose-only effect; inactive = no such curve, though single readings can be large or run the other way.
Assay: qHTS Validation assay for Inhibitors of Plasmodium falciparum Dd2 growth in vitro; note: nearly all actives have a fitted effect of over 70% in size
Details: P. falciparum Dd2 in RBCs, SYBR Green growth, 72 h
Source text: Malaria, a parasitic disease spread to humans through the bite of a Plasmodium infected Anopheles mosquito, continues to be a global health burden affecting millions of people, with an estimated 228 million cases and 405,000 deaths in 2018. Concerns about safety and limitations of current antimalarial treatments strongly emphasize the need to develop new therapeutic options. The scarce number of chemotypes and validated drug targets with efficacy against the liver stage, have hindered development of new antimalarials. To address this, a chemoprophylactic drug discovery effort was conducted through a combined phenotypic high-throughput asexual blood stage and liver stage screen, providing a robust foundation to identify liver-stage active lead chemotypes. Compounds were initially screened against Plasmodium falciparum Dd2 strain parasites using a in vitro SYBRGreen-1 based 72 hr proliferation assay to identify novel chemotypes to advance to liver stage assays. NIH/NCATS Early Translation Branch Assay Submitter (PI): Anton Simeonov Ph.D. […]
For `CN1CCCC(OC(=O)C(O)(c2ccccc2)c2ccccc2)C1` (stereo unspecified), the Potency was active: 13.3 µM.

Source: PubChem BioAssay AID1347416 (National Center for Advancing Translational Sciences (NCATS), 2020)
Potency is the fitted concentration of half-maximal effect.
